Data reported in patent US20250128113A1, “Decontamination Composition and Application Thereof” (published 2025).

Assay: Degradation of VX by CPO/H2O2 or H2O2 alone, GC-MS analysis

hydrogen peroxide
residual amount of VX (H2O2 5 mM, CPO absent, after 5 min of reaction): 35.72±0.77%
degrading rate of VX (non-catalytic reaction with H2O2, within 5 minutes): 60%
